Measured values from paper PMC9494680 (ACS Omega, 2022).

Experiments:
TF1 cells [1] = test: Caspase 3/7 flow cytometric apoptosis analysis; assay type: cell-based, human; details: TF1, IC50 value, 72 h
TF1 cells [2] = test: Annexin V and dead cell flow cytometric apoptosis analysis; assay type: cell-based, human; details: TF1, treated at IC50 value

In the case of N#CC[C@H](C1CCCC1)n1cc(-c2ncnc3[nH]ccc23)cn1 [ruxolitinib], the “Total number of apoptotic cells, caspase 3/7” value (TF1 cells [1]) is reported as about 50%, the “Total apoptotic cells, annexin V” value (TF1 cells [2]; 24 h) is reported as about 35% and the “Total apoptotic cells, annexin V” value (TF1 cells [2]; 72 h) is reported as about 50%.
